Test results taken from ChEMBL document CHEMBL1143857, “(Phenylpiperazinyl)cyclohexylureas: discovery of alpha1a/1d-selective adrenergic receptor antagonists for the treatment of benign prostatic hyperplasia/lower urinary tract symptoms (BPH/LUTS)” (Bioorg Med Chem Lett, 2008).

By UniProt entry, the sequences of proteins in these tests, tags left out.
UniProt P35368, whole entry: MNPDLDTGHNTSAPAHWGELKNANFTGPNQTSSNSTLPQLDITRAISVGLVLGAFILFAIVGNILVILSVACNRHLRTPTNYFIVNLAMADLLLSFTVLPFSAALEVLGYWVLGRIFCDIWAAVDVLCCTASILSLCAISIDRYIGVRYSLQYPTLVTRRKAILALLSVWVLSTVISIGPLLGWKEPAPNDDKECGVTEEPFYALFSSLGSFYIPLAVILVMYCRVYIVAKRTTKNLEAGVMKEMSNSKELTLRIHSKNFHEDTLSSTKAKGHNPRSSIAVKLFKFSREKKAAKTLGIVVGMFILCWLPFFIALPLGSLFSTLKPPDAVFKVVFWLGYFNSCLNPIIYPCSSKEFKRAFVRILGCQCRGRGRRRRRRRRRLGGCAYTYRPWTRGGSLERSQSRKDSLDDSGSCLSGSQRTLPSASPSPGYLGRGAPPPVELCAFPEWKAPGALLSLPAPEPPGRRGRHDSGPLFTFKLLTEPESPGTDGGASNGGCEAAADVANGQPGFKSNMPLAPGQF

Target: Alpha-1B adrenergic receptor (Homo sapiens, UniProt P35368)
Test: Displacement of [125I]HEAT from human recombinant adrenergic Alpha-1B receptor

Going from `COc1ccc(Cl)cc1NC(=O)NC1CCC(N2CCN(c3ccccc3OC(C)C)CC2)CC1` (cis isomer) to `COc1ccc(NC(=O)NC2CCC(N3CCN(c4ccccc4OC(C)C)CC3)CC2)c(OC)c1` (stereo in doubt; cis), the Ki rises from 0.207 µM to 0.475 µM (2.3-fold).

Compared with `COc1ccc(NC(=O)NC2CCC(N3CCN(c4ccccc4OC(C)C)CC3)CC2)c(OC)c1` (stereo in doubt; trans), `COc1ccc(Cl)cc1NC(=O)NC1CCC(N2CCN(c3ccccc3OC(C)C)CC2)CC1` (trans isomer) is 2.6-fold lower in Ki: 0.214 µM for the first, 0.081 µM for the second. The second binds more tightly here.
